Reference: patent US20110269161

Molecular target: T1, peptide H5 (EYDRLYEEYTPFR), derived from Phosphatidylinositol 3-kinase regulatory subunit p85α(Tyr-467)/p55γ(Tyr-199)
T1 chain: EYDRLYEEYTPFR

B1: epidermal growth factor (EGF) receptor (EGFR, 672-1210), purified human active kinase (protein)
chain: HIVRKRTLRRLLQERELVEPLTPSGEAPNQALLRILKETEFKKIKVLGSGAFGTVYKGLWIPEGEKVKIPVAIKELREATSPKANKEILDEAYVMASVDNPHVCRLLGICLTSTVQLITQLMPFGCLLDYVREHKDNIGSQYLLNWCVQIAKGMNYLEDRRLVHRDLAARNVLVKTPQHVKITDFGLAKLLGAEEKEYHAEGGKVPIKWMALESILHRIYTHQSDVWSYGVTVWELMTFGSKPYDGIPASEISSILEKGERLPQPPICTIDVYMIMVKCWMIDADSRPKFRELIIEFSKMARDPQRYLVIQGDERMHLPSPTDSNFYRALMDEEDMDDVVDADEYLIPQQGFFSSPSTSRTPLLSSLSATSNNSTVACIDRNGLQSCPIKEDSFLQRYSSDPTGALTEDSIDDTFLPVPEYINQSVPKRPAGSVQNPVYHNQPLNPAPSRDPHYQDPHSTAVGNPEYLNTVQPTCVNSTFDSPAHWAQKGSHQISLDNPDYQQDFFPKEAKPNGIFKGSTAENAEYLRVAPQSSEFIGA
in vitro kinase reaction with purified kinase: robust phosphorylation by Src but not EGFR
